We go through one compound from patent publication US20090196871A1, “USE OF 4-PYRIDYLMETHYLPHTHALAZINES FOR CANCER TREATMENT” (priority 2001, published 2009).

For this series the following is noted: human, in vivo, po.

Take `Clc1ccc(Nc2nnc(Cc3ccncc3)c3ccccc23)cc1`: the “time by which steady-state was achieved” value is at most 15 days.
